# Assay results as given in patent publication US10844044B2 (Vanderbilt University, priority 2018, dated 2020).
# Biological target: WDR5 (Homo sapiens (Human), UniProt P61964)
# Assay: TR-FRET binding assay (displacement of 10mer-Thr-FAM probe from WDR5)
# Details: read-out: Ki for Inhibition of WDR5 by TR-FRET assay
smiles,measurement,value
"Cn1ccn(Cc2cc(C(=O)NCc3ccc(Cl)c(Cl)c3)cc(-c3ccccc3C(F)(F)F)c2)c1=N [Example 90, N-(3,4-Dichlorobenzyl)-5-((2-imino-3-methyl-2,3-dihydro-1H-imidazol-1-yl)methyl)-2′-(trifluoromethyl)-[1,1′-biphenyl]-3-carboxamide]",Ki,460 pM
